In patent US20040076974A1, “Liver necrosis predictive genes” (priority 2002, published 2004):

Columns and labels:
[1] = tested on: Sprague Dawley rats; settings: rat, in vivo
[2] = tested on: toxicologically relevant rat genes (rat CT array); settings: in vivo

## S=C=Nc1cccc2ccccc12 [1-naphthylisothiocyanate]
[1]
  toxicity at the low dose: not at the low dose

## CN(C)[C@@H]1C(O)=C(C(N)=O)C(=O)[C@@]2(O)C(O)=C3C(=O)c4c(O)cccc4[C@@](C)(O)[C@H]3C[C@@H]12 [tetracycline]
[2]
  Cytochrome P450 3A1 expression: 1.057
